ChEMBL document CHEMBL4732155 (Eur J Med Chem, 2021)

Assays:
[1] = species: Homo sapiens; assay: Selectivity ratio of IC50 for inhibition of His6-tagged p97 C522A mutant (unknown origin) expressed in Escherichia coli BL21 (DE3) to IC50 for inhibition of His6-tagged p97 (unknown origin) expressed in Escherichia coli BL21 (DE3)
[2] = species: Homo sapiens; assay: Selectivity ratio of IC50 for inhibition of His6-tagged p97 C522T mutant (unknown origin) expressed in Escherichia coli BL21 (DE3) to IC50 for inhibition of His6-tagged p97 (unknown origin) expressed in Escherichia coli BL21 (DE3)
[3] = test system: Saccharomyces cerevisiae; assay: Selectivity ratio of IC50 for inhibition of yeast Cdc48 T532C mutant to IC50 for inhibition of yeast Cdc48
[4] = Selectivity ratio of IC50 for hamster NSF to IC50 for His6-tagged p97 (unknown origin) expressed in Escherichia coli BL21 (DE3)

C=CC(=O)Nc1ncnc2c1c(-c1ccccc1)nn2C(C)(C)C
Selectivity ratio [1]: > 100 | Selectivity ratio [2]: > 100 | Selectivity ratio [3]: 30 | Selectivity ratio [4]: > 100
